# Assay results reported in US12528837B2, “Aryl substituted polymyxin derivatives” (priority 2018, dated 2026).
# Where two headings read alike, the source gives them in different places.
# Assays:
# Format in all cases: cell-based
# E. coli ATCC 25922 = test system: E. coli ATCC 25922
# Description: (§1) The inoculum was prepared by making a direct suspension of isolated colonies (selected from an 18-24 hour Mueller-Hinton agar plate) adjusted to the 0.5 McFarland standard. […] The assays were performed in duplicate. […] Several of the compounds were subjected to multiple tests, and where this is the case, the MIC presented is the median value obtained. The MIC values are quoted in μg/mL.
# K. pneumoniae ATCC 13822 = test system: K. pneumoniae ATCC 13822
# Description: as §1
# [1] = test system: A. baumannii ATCC BAA-747
# Description: as §1
# A. baumannii NCTC 13424 = test system: A. baumannii NCTC 13424
# Description: as §1
# P. aeruginosa ATCC 27853 = test system: P. aeruginosa ATCC 27853
# Description: as §1
# [2] = cation-adjusted Mueller-Hinton Broth, 18-20 h, 35° C.
Compound,MIC E. coli ATCC 25922 (E. coli ATCC 25922; ATCC 25922),"MIC A. baumannii ATCC BAA-747 [1, 2]",MIC A. baumannii NCTC 13424 (A. baumannii NCTC 13424; [2]),other results
"CC(C)C[C@@H]1NC(=O)[C@@H](Cc2ccccc2)NC(=O)[C@H](CCN)NC(=O)[C@@H](NC(=O)[C@H](CN)NC(=O)[C@@H](NC(=O)C[C@H](CN)c2ccc(Cl)cc2)[C@@H](C)O)CCNC(=O)[C@H]([C@@H](C)O)NC(=O)[C@H](CCN)NC(=O)[C@H](CCN)NC1=O [Example 1, (S)-4-amino-3-(4- chlorophenyl) butanoyl- Thr- Dap-Cyclo[Dab- Dab-DPhe-Leu-Dab- Dab-Thr]]",0.125 µg/mL,,,MIC K. pneumoniae ATCC 13822 (K. pneumoniae ATCC 13822; ATCC 13822): 0.125 µg/mL
CC[C@@H]1NC(=O)[C@@H](CC(C)C)NC(=O)[C@H](CCN)NC(=O)[C@@H](NC(=O)[C@H](CN)NC(=O)[C@@H](NC(=O)C[C@@H](CN)c2cccc(-c3ccccc3)c2)[C@@H](C)O)CCNC(=O)[C@H]([C@@H](C)O)NC(=O)[C@H](CCN)NC(=O)[C@H](CCN)NC1=O [Example 25],,0.125 µg/mL,0.125 µg/mL,
CC[C@@H]1NC(=O)[C@@H](Cc2ccccc2)NC(=O)[C@H](CCN)NC(=O)[C@@H](NC(=O)[C@H](CN)NC(=O)[C@@H](NC(=O)C[C@@H](CN)c2cccc(C(C)C)c2)[C@@H](C)O)CCNC(=O)[C@H]([C@@H](C)O)NC(=O)[C@H](CCN)NC(=O)[C@H](CCN)NC1=O [Example 18],,0.125 µg/mL,0.125 µg/mL,
"CCCC[C@H]1NC(=O)[C@H](CCN)NC(=O)[C@@H](NC(=O)[C@H](CN)NC(=O)[C@@H](NC(=O)C[C@H](CN)c2cc(Cl)cc(Cl)c2)[C@@H](C)O)CCNC(=O)[C@H]([C@@H](C)O)NC(=O)[C@H](CCN)NC(=O)[C@H](CCN)NC(=O)[C@H](CC)NC1=O [Example 28, (S)-4-amino-3-(3,5- dichlorophenyl)butanoyl- Thr-Dap- Cyclo[Dab-Dab- DnorLeu-Abu-Dab- Dab-Thr]]",0.125 µg/mL,0.125 µg/mL,,MIC K. pneumoniae ATCC 13822 (K. pneumoniae ATCC 13822; ATCC 13822): 0.125 µg/mL
"CCCC[C@H]1NC(=O)[C@H](CCN)NC(=O)[C@@H](NC(=O)[C@H](CN)NC(=O)[C@@H](NC(=O)C[C@@H](CN)c2cc(Cl)cc(Cl)c2)[C@@H](C)O)CCNC(=O)[C@H]([C@@H](C)O)NC(=O)[C@H](CCN)NC(=O)[C@H](CCN)NC(=O)[C@H](CC)NC1=O [Example 29, (R)-4-amino-3-(3,5- dichlorophenyl)butanoyl- Thr-Dap- Cyclo[Dab-Dab- DnorLeu-Abu-Dab- Dab-Thr]]",,0.125 µg/mL,0.125 µg/mL,
"CC(C)C[C@@H]1NC(=O)[C@@H](Cc2ccccc2)NC(=O)[C@H](CCN)NC(=O)[C@@H](NC(=O)[C@H](CN)NC(=O)[C@@H](NC(=O)C[C@H](CN)Cc2ccccc2)[C@@H](C)O)CCNC(=O)[C@H]([C@@H](C)O)NC(=O)[C@H](CCN)NC(=O)[C@H](CCN)NC1=O [Example 9, (R)-4-amino-3- benzylbutanoyl-Thr- Dap-Cyclo[Dab-Dab- DPhe-Leu-Dab-Dab- Thr). Isomer 1]",,,0.125 µg/mL,MIC P. aeruginosa ATCC 27853 (P. aeruginosa ATCC 27853; [2]): 0.125 µg/mL
"CC[C@@H]1NC(=O)[C@@H](CC(C)C)NC(=O)[C@H](CCN)NC(=O)[C@@H](NC(=O)[C@H](CN)NC(=O)[C@@H](NC(=O)C[C@@H](CN)c2cccc(CC(C)C)c2)[C@@H](C)O)CCNC(=O)[C@H]([C@@H](C)O)NC(=O)[C@H](CCN)NC(=O)[C@H](CCN)NC1=O [Example 27, (R)-4-amino-3-(3- isobutylphenyl)butanoyl- Thr- Dap- Cyclo[Dab-Dab-DLeu- Abu-Dab-Dab-Thr]]",,,,MIC A. baumannii ATCC BAA-747 ([1]; ATCC BAA-747): 0.125 µg/mL; MIC A. baumannii NCTC 13424 (A. baumannii NCTC 13424; NCTC 13424): 0.125 µg/mL
"CC(C)C[C@@H]1NC(=O)[C@@H](Cc2ccccc2)NC(=O)[C@H](CCN)NC(=O)[C@@H](NC(=O)[C@H](CN)NC(=O)[C@@H](NC(=O)C[C@@H](CN)Cc2ccccc2)[C@@H](C)O)CCNC(=O)[C@H]([C@@H](C)O)NC(=O)[C@H](CCN)NC(=O)[C@H](CCN)NC1=O [Example 10, (S)-4-amino-3- benzylbutanoyl-Thr- Dap-Cyclo[Dab-Dab- DPhe-Leu-Dab-Dab- Thr]. Isomer 2]",,,,MIC P. aeruginosa ATCC 27853 (P. aeruginosa ATCC 27853; [2]): 0.125 µg/mL; MIC E. coli ATCC 25922 (E. coli ATCC 25922; [2]): 0.125 µg/mL
"CC[C@@H]1NC(=O)[C@@H](CC(C)C)NC(=O)[C@H](CCN)NC(=O)[C@@H](NC(=O)[C@H](CN)NC(=O)[C@@H](NC(=O)C[C@H](CN)c2cccc(Br)c2)[C@@H](C)O)CCNC(=O)[C@H]([C@@H](C)O)NC(=O)[C@H](CCN)NC(=O)[C@H](CCN)NC1=O [Example 32, (S)-4-amino-3-(3- bromophenyl)butanoyl- Thr-Dap-Cyclo[Dab- Dab-DLeu-Abu-Dab- Dab-Thr]]",,0.125 µg/mL,0.125 µg/mL,
"CC[C@@H]1NC(=O)[C@@H](CC(C)C)NC(=O)[C@H](CCN)NC(=O)[C@@H](NC(=O)[C@H](CN)NC(=O)[C@@H](NC(=O)C[C@@H](CN)c2cccc(-c3ccsc3)c2)[C@@H](C)O)CCNC(=O)[C@H]([C@@H](C)O)NC(=O)[C@H](CCN)NC(=O)[C@H](CCN)NC1=O [Example 31, (R)-4-amino-3-(3- (thiophen-3-yl)phenyl)butanoyl- Thr-Dap-Cyclo[Dab- Dab-DLeu-Abu-Dab- Dab-Thr]]",0.125 µg/mL,,,MIC A. baumannii NCTC 13424 (A. baumannii NCTC 13424; NCTC 13424): 0.125 µg/mL
"CC[C@@H]1NC(=O)[C@@H](CC(C)C)NC(=O)[C@H](CCN)NC(=O)[C@@H](NC(=O)[C@H](CN)NC(=O)[C@@H](NC(=O)C[C@H](CN)c2cccc(-c3ccsc3)c2)[C@@H](C)O)CCNC(=O)[C@H]([C@@H](C)O)NC(=O)[C@H](CCN)NC(=O)[C@H](CCN)NC1=O [Example 30, (S)-4-amino-3-(3- (thiophen-3-yl)phenyl)butanoyl- Thr-Dap-Cyclo[Dab- Dab-DLeu-Abu-Dab- Dab-Thr]]",0.125 µg/mL,,,MIC K. pneumoniae ATCC 13822 (K. pneumoniae ATCC 13822; ATCC 13822): 0.125 µg/mL
"CC(C)C[C@@H]1NC(=O)[C@@H](CC(C)C)NC(=O)[C@H](CCN)NC(=O)[C@@H](NC(=O)[C@H](CN)NC(=O)[C@@H](NC(=O)C[C@H](CN)c2cccc(C(C)C)c2)[C@@H](C)O)CCNC(=O)[C@H]([C@@H](C)O)NC(=O)[C@H](CCN)NC(=O)[C@H](CCN)NC1=O [Example 15, (S)-4-amino-3-(3- isopropylphenyl) butanoyl-Thr-Dap- Cyclo[Dab-Dab-DLeu- Leu-Dab-Dab-Thr]]",0.125 µg/mL,,,MIC K. pneumoniae ATCC 13822 (K. pneumoniae ATCC 13822; ATCC 13822): 0.125 µg/mL
"Cc1cccc([C@@H](CN)CC(=O)N[C@H](C(=O)N[C@@H](CN)C(=O)N[C@H]2CCNC(=O)[C@H]([C@@H](C)O)NC(=O)[C@H](CCN)NC(=O)[C@H](CCN)NC(=O)[C@H](CC(C)C)NC(=O)[C@@H](Cc3ccccc3)NC(=O)[C@H](CCN)NC2=O)[C@@H](C)O)c1 [Example 21, (S)-4-amino-3-(m- tolyl)butanoyl-Thr- Dap-Cyclo[Dab-Dab- DPhe-Leu-Dab-Dab- Thr]]",0.125 µg/mL,,,MIC A. baumannii ATCC BAA-747 ([1]; ATCC BAA-747): 0.125 µg/mL; MIC A. baumannii NCTC 13424 (A. baumannii NCTC 13424; NCTC 13424): 0.125 µg/mL
CC[C@@H]1NC(=O)[C@@H](CC(C)C)NC(=O)[C@H](CCN)NC(=O)[C@@H](NC(=O)[C@H](CN)NC(=O)[C@@H](NC(=O)C[C@H](CN)c2cccc(Cl)c2)[C@@H](C)O)CCNC(=O)[C@H]([C@@H](C)O)NC(=O)[C@H](CCN)NC(=O)[C@H](CCN)NC1=O [Example 23],,,0.125 µg/mL,MIC E. coli ATCC 25922 (E. coli ATCC 25922; [2]): 0.125 µg/mL; MIC K. pneumoniae ATCC 13822 (K. pneumoniae ATCC 13822; [2]): 0.125 µg/mL
"CC[C@@H]1NC(=O)[C@@H](CC(C)C)NC(=O)[C@H](CCN)NC(=O)[C@@H](NC(=O)[C@H](CN)NC(=O)[C@@H](NC(=O)C[C@H](CN)c2cccc(-c3ccccc3)c2)[C@@H](C)O)CCNC(=O)[C@H]([C@@H](C)O)NC(=O)[C@H](CCN)NC(=O)[C@H](CCN)NC1=O [Example 24, (S)-3-(1,1′-biphenyl- 3-yl)-4-aminobutanoyl-Thr- Dap-Cyclo[Dab-Dab- DLeu-Abu-Dab-Dab- Thr]]",0.125 µg/mL,,,MIC P. aeruginosa ATCC 27853 (P. aeruginosa ATCC 27853; ATCC 27853): 0.125 µg/mL
"CC(C)C[C@@H]1NC(=O)[C@@H](Cc2ccccc2)NC(=O)[C@H](CCN)NC(=O)[C@@H](NC(=O)[C@H](CN)NC(=O)[C@@H](NC(=O)C[C@@H](CN)Cc2cccc(Cl)c2)[C@@H](C)O)CCNC(=O)[C@H]([C@@H](C)O)NC(=O)[C@H](CCN)NC(=O)[C@H](CCN)NC1=O [Example 12, (S)-4-amino-3-(3- chlorobenzyl)butanoyl- Thr-Dap-Cyclo[Dab- Dab-DPhe-Leu-Dab- Dab-Thr]. Isomer 2]",,,,MIC P. aeruginosa ATCC 27853 (P. aeruginosa ATCC 27853; ATCC 27853): 0.125 µg/mL
"CC(C)C[C@@H]1NC(=O)[C@@H](CC(C)C)NC(=O)[C@H](CCN)NC(=O)[C@@H](NC(=O)[C@H](CN)NC(=O)[C@@H](NC(=O)C[C@@H](CN)Cc2ccccc2)[C@@H](C)O)CCNC(=O)[C@H]([C@@H](C)O)NC(=O)[C@H](CCN)NC(=O)[C@H](CCN)NC1=O [Example 8, (S)-4-amino-3- benzylbutanoyl-Thr- Dap-Cyclo[Dab-Dab- DLeu-Leu-Dab-Dab- Thr], Isomer 2]",,0.125 µg/mL,,MIC E. coli ATCC 25922 (E. coli ATCC 25922; [2]): 0.125 µg/mL
